IntAct's records for PubMed 16282588

B1: G/T mismatch-specific thymine DNA glycosylase (Homo sapiens), Q13569 (parent)
chain: MEAENAGSYSLQQAQAFYTFPFQQLMAEAPNMAVVNEQQMPEEVPAPAPAQEPVQEAPKGRKRKPRTTEPKQPVEPKKPVESKKSGKSAKSKEKQEKITDTFKVKRKVDRFNGVSEAELLTKTLPDILTFNLDIVIIGINPGLMAAYKGHHYPGPGNHFWKCLFMSGLSEVQLNHMDDHTLPGKYGIGFTNMVERTTPGSKDLSSKEFREGGRILVQKLQKYQPRIAVFNGKCIYEIFSKEVFGVKVKNLEFGLQPHKIPDTETLCYVMPSSSARCAQFPRAQDKVHYYIKLKDLRDQLKGIERNMDVQEVQYTFDLQLAQEDAKKMAVKEEKYDPGYEAAYGGAYGENPCSSEPCGFSSNGLIESVELRGESAFSGIPNGQWMTQSFTDQIPSFSNHCGTQEQEEESHA

Legend:
[1] = variants of: B1; conditions: with ncoa1_human NCOA1, Q15788
esr1_mouse Esr1, P19785 = variants of: B1; conditions: with esr1_mouse Esr1, P19785

MEAENAGSYSLQQAQAFYTFPFQQLMAEAPNMAVVNEQQMPEEVPAPAPAQEPVQEAPKGRKRKPRTTEPKQPVEPKKPVESKKSGKSAKSKEKQEKITDTFKVKRKVDRFNGVSEAELLTKTLPDILTFNLDIVIIGINPGLMAAYKGHHYPGPGNHFWKCLFMSGLSEVQLNHMDDHTLPGKYGIGFTNMVERTTPGSKDLSSKEFREGGRILVQKLQKYQPRIAVFNGKCIYEIFSKEVFGVKVKNLEFGLQPHKIPDTETLCYVMPSSSARCAQFPRAQDKVHYYIKLKDLRDQLKGIERNMDVQEVQYTFDLQLAQEDAKKMAVKEEKFDPGFEAAFGGAFGENPCSSEPCGFSSNGLIESVELRGESAFSGIPNGQWMTQSFTDQIPSFSNHCGTQEQEEESHA [Y334F;Y338F;Y342F;Y346F]
effect of a mutation on the interaction [1]: disrupting interaction strength
effect of a mutation on the interaction (esr1_mouse Esr1, P19785): with no effect

MEAENAGSYSLQQAQAFYTFPFQQLMAEAPNMAVVNEQQMPEEVPAPAPAQEPVQEAPKGRKRKPRTTEPKQPVEPKKPVESKKSGKSAKSKEKQEKITDTFKVKRKVDRFNGVSEAELLTKTLPDILTFNLDIVIIGINPGLMAAYKGHHYPGPGNHFWKCLFMSGLSEVQLNHMDDHTLPGKYGIGFTNMVERTTPGSKDLSSKEFREGGRILVQKLQKYQPRIAVFNGKCIYEIFSKEVFGVKVKNLEFGLQPHKIPDTETLCYVMPSSSARCAQFPRAQDKVHYYIKLKDLRDQLKGIERNMDVQEVQYTFDLQLAQEDAKKMAVKEEKFDPGFEAAYGGAYGENPCSSEPCGFSSNGLIESVELRGESAFSGIPNGQWMTQSFTDQIPSFSNHCGTQEQEEESHA [Y334F;Y338F]
effect of a mutation on the interaction [1]: decreasing interaction strength
effect of a mutation on the interaction (esr1_mouse Esr1, P19785): with no effect

MEAENAGSYSLQQAQAFYTFPFQQLMAEAPNMAVVNEQQMPEEVPAPAPAQEPVQEAPKGRKRKPRTTEPKQPVEPKKPVESKKSGKSAKSKEKQEKITDTFKVKRKVDRFNGVSEAELLTKTLPDILTFNLDIVIIGINPGLMAAYKGHHYPGPGNHFWKCLFMSGLSEVQLNHMDDHTLPGKYGIGFTNMVERTTPGSKDLSSKEFREGGRILVQKLQKYQPRIAVFNGKCIYEIFSKEVFGVKVKNLEFGLQPHKIPDTETLCYVMPSSSARCAQFPRAQDKVHYYIKLKDLRDQLKGIERNMDVQEVQYTFDLQLAQEDAKKMAVKEEKYDPGYEAAAGGAAGENPCSSEPCGFSSNGLIESVELRGESAFSGIPNGQWMTQSFTDQIPSFSNHCGTQEQEEESHA [Y342A;Y346A]
effect of a mutation on the interaction [1]: decreasing interaction strength
effect of a mutation on the interaction (esr1_mouse Esr1, P19785): with no effect

MEAENAGSYSLQQAQAFYTFPFQQLMAEAPNMAVVNEQQMPEEVPAPAPAQEPVQEAPKGRKRKPRTTEPKQPVEPKKPVESKKSGKSAKSKEKQEKITDTFKVKRKVDRFNGVSEAELLTKTLPDILTFNLDIVIIGINPGLMAAYKGHHYPGPGNHFWKCLFMSGLSEVQLNHMDDHTLPGKYGIGFTNMVERTTPGSKDLSSKEFREGGRILVQKLQKYQPRIAVFNGKCIYEIFSKEVFGVKVKNLEFGLQPHKIPDTETLCYVMPSSSARCAQFPRAQDKVHYYIKLKDLRDQLKGIERNMDVQEVQYTFDLQLAQEDAKKMAVKEEKYDPGYEAAFGGAFGENPCSSEPCGFSSNGLIESVELRGESAFSGIPNGQWMTQSFTDQIPSFSNHCGTQEQEEESHA [Y342F;Y346F]
effect of a mutation on the interaction [1]: decreasing interaction strength
effect of a mutation on the interaction (esr1_mouse Esr1, P19785): with no effect

MEAENAGSYSLQQAQAFYTFPFQQLMAEAPNMAVVNEQQMPEEVPAPAPAQEPVQEAPKGRKRKPRTTEPKQPVEPKKPVESKKSGKSAKSKEKQEKITDTFKVKRKVDRFNGVSEAELLTKTLPDILTFNLDIVIIGINPGLMAAYKGHHYPGPGNHFWKCLFMSGLSEVQLNHMDDHTLPGKYGIGFTNMVERTTPGSKDLSSKEFREGGRILVQKLQKYQPRIAVFNGKCIYEIFSKEVFGVKVKNLEFGLQPHKIPDTETLCYVMPSSSARCAQFPRAQDKVHYYIKLKDLRDQLKGIERNMDVQEVQYTFDLQLAQEDAKKMAVKEEKYDPGYEAAYGGAYGENPASSEPAGFSSNGLIESVELRGESAFSGIPNGQWMTQSFTDQIPSFSNHCGTQEQEEESHA [C351A;C356A]
effect of a mutation on the interaction [1]: with no effect
effect of a mutation on the interaction (esr1_mouse Esr1, P19785): with no effect

MEAENAGSYSLQQAQAFYTFPFQQLMAEAPNMAVVNEQQMPEEVPAPAPAQEPVQEAPKGRKRKPRTTEPKQPVEPKKPVESKKSGKSAKSKEKQEKITDTFKVKRKVDRFNGVSEAELLTKTLPDILTFNLDIVIIGINPGLMAAYKGHHYPGPGNHFWKCLFMSGLSEVQLNHMDDHTLPGKYGIGFTNMVERTTPGSKDLSSKEFREGGRILVQKLQKYQPRIAVFNGKCIYEIFSKEVFGVKVKNLEFGLQPHKIPDTETLCYVMPSSSARCAQFPRAQDKVHYYIKLKDLRDQLKGIERNMDVQEVQYTFDLQLAQEDAKKMAVKEEKADPGAEAAYGGAYGENPCSSEPCGFSSNGLIESVELRGESAFSGIPNGQWMTQSFTDQIPSFSNHCGTQEQEEESHA [Y334A;Y338A]
effect of a mutation on the interaction [1]: decreasing interaction strength
effect of a mutation on the interaction (esr1_mouse Esr1, P19785): with no effect

MEAENAGSYSLQQAQAFYTFPFQQLMAEAPNMAVVNEQQMPEEVPAPAPAQEPVQEAPKGRKRKPRTTEPKQPVEPKKPVESKKSGKSAKSKEKQEKITDTFKVKRKVDRFNGVSEAELLTKTLPDILTFNLDIVIIGINPGLMAAYKGHHYPGPGNHFWKCLFMSGLSEVQLNHMDDHTLPGKYGIGFTNMVERTTPGSKDLSSKEFREGGRILVQKLQKYQPRIAVFNGKCIYEIFSKEVFGVKVKNLEFGLQPHKIPDTETLCYVMPSSSARCAQFPRAQDKVHYYIKLKDLRDQLKGIERNMDVQEVQYTFDLQLAQEDAKKMAVKEEKADPGAEAAAGGAAGENPCSSEPCGFSSNGLIESVELRGESAFSGIPNGQWMTQSFTDQIPSFSNHCGTQEQEEESHA [Y334A;Y338A;Y342A;Y346A]
effect of a mutation on the interaction [1]: disrupting interaction strength
effect of a mutation on the interaction (esr1_mouse Esr1, P19785): with no effect
